Earlier results in PMC8498988, “Scaffold Hybridization Strategy Leads to the Discovery of Dopamine D3 Receptor-Selective or Multitarget Bitopic Ligands Potentially Useful for Central Nervous System Disorders” (ACS Chemical Neuroscience, 2021).

Sequences of proteins named here, by UniProt entry; tags and fusion partners are left off.
UniProt P28223, whole entry: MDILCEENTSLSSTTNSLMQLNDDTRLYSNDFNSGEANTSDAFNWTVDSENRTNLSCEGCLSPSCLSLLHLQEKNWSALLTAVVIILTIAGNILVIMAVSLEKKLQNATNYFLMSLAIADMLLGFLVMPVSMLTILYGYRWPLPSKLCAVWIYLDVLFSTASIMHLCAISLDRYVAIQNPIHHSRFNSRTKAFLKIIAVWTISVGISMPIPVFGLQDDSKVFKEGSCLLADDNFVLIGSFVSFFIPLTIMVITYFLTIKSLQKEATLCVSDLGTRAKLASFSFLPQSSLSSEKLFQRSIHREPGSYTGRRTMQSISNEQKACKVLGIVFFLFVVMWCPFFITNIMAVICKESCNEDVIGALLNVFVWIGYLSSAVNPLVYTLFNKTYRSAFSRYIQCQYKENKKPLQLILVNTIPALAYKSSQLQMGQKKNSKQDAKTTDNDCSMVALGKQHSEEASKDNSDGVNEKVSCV

Legend:
[1] = in 20% aqueous ethanol; cited from earlier work
5-HT2AR = 5-HT2AR (Homo sapiens, UniProt P28223); parameters: expressed in transfected cells; host or cells: HEK (HEK-h5HT2A); conditions: read-out: Ki ± SEM, 5-HT2AR; cited from earlier work

Compound: O=C1CCc2ccc(OCCCCN3CCN(c4cccc(Cl)c4Cl)CC3)cc2N1 [aripiprazole]
- experimental pKa value [1]: 7.6

Compound: COc1ccccc1OCCNCC1COCC(c2ccccc2)(c2ccccc2)O1 (centres unmarked) [compound 1]
- Ki (5-HT2AR): 0.0525 ± 0.0044 µM
